# Results as given in PubChem BioAssay AID624418 (National Center for Advancing Translational Sciences (NCATS), 2012).
# The list shows a part of the results, in another mix than the full data. Inconclusive results are not listed. Activity calls are given as the source filed them. Calls follow the shape of the dose curve; as a rule, active = well fitted inhibition curve with a large enough effect; inconclusive = small, poorly fitted or top-dose-only effect, or another doubt; inactive = no such curve, though single readings can be large or run the other way.
# Assay: qHTS of GLP-1 Receptor Inverse Agonists: Cytotox Screen;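 also: loss of luciferase light is scored as toxicity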
# Conditions: HEK293 cAMP-luciferase reporter cells, luminescence, 24 h; series mostly up to 38.3 µM; activity change, negative = inhibition: at the top concentration
# Text: The overall goal of this project was to develop a novel assay for discovering small molecule ligands for class B1 G protein-coupled receptors (GPCRs). Very few agonists (or inverse agonists) with generally weak activity for this entire group of physiologically important receptors are known to date. To establish proof-of-principle that this critical bottleneck can be overcome with a suitable screening approach, our studies focused on the class B1 receptor for glucagon-like peptide-1 (GLP-1R), a potential therapeutic target for diabetes and neurodegenerative disease.
# The assay was developed using a cell-based functional readout. Toward this goal, stably transfected HEK293 cell clones were established that co-express (i) a cAMP-responsive luciferase reporter gene, and (ii) constitutively active GLP-1R that upon ligand interaction inhibit (inverse agonists) the luciferase activity. In addition, two control cell lines were developed: (i) one that express only the cAMP-responsive reporter gene to enable initial exclusion of GLP-1R independent effects of candidate probes; and (ii) one with the reported gene cloned with another constitutively active orphan receptor GPR119 to enable exclusion of GLP-1R independent inhibitor effects of candidate inverse agonists.
# To that end, this assay was optimized for 1536-well format and screened against the MLSMR. Then the same collection was run in this cytotoxicity assay where inhibition was the undesired outcome.
# NIH Molecular Libraries Probe Production Network [MLPCN]
# NIH Chemical Genomics Center [NCGC]
# PI Name: Martin Beinborn, Tufts Medical Center
# Six ul of cell suspension (200 cells/uL in DMEM + 10% Nu serum + 1% pen-strep) is dispensed in a white solid 1536-well plate. The plates are incubated for 12 hours at 37 deg C at 5% CO2 followed by addition of 23 nL compounds. After 24 hr incubation at 37 deg C and 5% CO2, 3 uL of luciferase assay detection reagent is added. A luminescence read is obtained on the PerkinElmer Viewlux after 12 min incubation at room temperature.
# % is scaled to controls: 0 for no effect and ±100 for the full control effect; potency is read from the fitted curve at half-maximal effect.
SMILES,"activity change, negative = inhibition",Potency
O=[N+]([O-])c1cccc(NC2=NCC(CBr)S2)c1 (stereo unspecified),inactive: -13.7%,–
COC(=O)C1(C)COP(=O)(Nc2ccccc2)OC1 (stereo unspecified),inactive: -12.3%,–
O=C(O)CNc1ccc([As](=O)(O)O)cc1,inactive: 7.15%,–
Nc1ccc(CCCCOc2ccccc2)cc1,inactive: -11.1%,–
COc1ccc(N)c([N+](=O)[O-])c1[N+](=O)[O-],inactive: -34.6%,–
CN(C)C1(CNC(=O)c2ccc(Cl)c(S(N)(=O)=O)c2)CCCCC1,inactive: 0.792%,–
O=P(Nc1ccccn1)(c1ccc(Br)cc1)c1ccc(Br)cc1,inactive: -7.77%,–
C[C@H]1OP(=O)(Oc2ccccc2)[C@H](O)[C@H](O)[C@H]1N=[N+]=[N-] (stereo partly specified),inactive: 5.26%,–
O=P(Nc1nc2ccccc2s1)(c1ccccc1)c1ccccc1,inactive: -13.8%,–
O=[N+]([O-])c1ncn(CCn2cnc([N+](=O)[O-])n2)n1,inactive: -0.0623%,–
CC(=O)NC(SC(=S)N(C)C)C(Cl)(Cl)Cl (stereo unspecified),inactive: -16.2%,–
O=[N+]([O-])c1ccc(O)c(/C=N/Nc2ccc([N+](=O)[O-])cc2[N+](=O)[O-])c1,–,active: 10 µM
O=[As](O)(c1ccccc1)c1ccc(O)cc1,inactive: -8%,–
Nc1ccc([As](=O)(O)c2ccc([N+](=O)[O-])cc2)cc1,inactive: 2.84%,–
C(Cc1nn[nH]n1)Cc1nn[nH]n1,inactive: 0.778%,–
O=C(OC1CN2CCC1CC2)c1cccc(Cl)c1 (stereo unspecified),inactive: -9.64%,–
O=P(Nc1nccs1)(c1ccccc1)c1ccccc1,inactive: -1.56%,–
CC(C)C(=O)NC(Sc1ccccc1)C(Cl)(Cl)Cl (stereo unspecified),inactive: 14.8%,–
c1nnnn1CCn1cnnn1,inactive: 0.438%,–
CCOc1ccc(C2=NCC(CBr)S2)cc1 (stereo unspecified),inactive: 2.62%,–
O=P1(Nc2nc3ccc(Cl)cc3s2)COc2ccccc2O1 (stereo unspecified),inactive: -7.52%,–

SMILES,"activity change, negative = inhibition",Potency
CCc1cc(O)c([N+](=O)[O-])c(C)c1[N+](=O)[O-],inactive: -0.683%,–
CC(C)(C)C(=O)NC(Sc1ccccc1)C(Cl)(Cl)Cl (stereo unspecified),inactive: -2.43%,–
COC(=O)C1(C)COP(=O)(NCc2ccccc2)OC1 (stereo unspecified),inactive: -2.2%,–
CC(=O)c1ccc(N2CC2c2ccncc2)cc1 (stereo unspecified),inactive: 3.64%,–
C[C@@H]1C=CCP(=O)(Oc2ccccc2)O1 (stereo partly specified),inactive: 8%,–
C[C@H]1OP(=O)(Oc2ccccc2)C[C@@H]2O[C@@H]21 (stereo partly specified),inactive: 3.45%,–
Cc1ccccc1CN(C)C(=O)COC(=O)C(O)(c1ccccc1)c1ccccc1,inactive: 9.35%,–
CC(=O)Nc1ccc(Oc2c([N+](=O)[O-])cc([N+](=O)[O-])cc2[N+](=O)[O-])cc1,inactive: -23.7%,–
CC(=O)Nc1ccc([As](=O)(O)O)c(O)c1,inactive: 3.27%,–
O=C(NC1CCS(=O)(=O)C1)NP(=S)(Oc1ccccc1)Oc1ccccc1 (stereo unspecified),inactive: 7.24%,–
CCNC(=S)/N=C(\N)N[N+](=O)[O-],inactive: -12.6%,–
Cc1ccc(NP(=O)(Oc2cccc(C)c2)Oc2cccc(C)c2)nc1,inactive: 3.91%,–
c1ccc(-c2nn[nH]n2)c(-c2nn[nH]n2)c1,inactive: -2.9%,–
O=P1(N(CCCl)CCCl)OCCC2CCCCN21 (stereo unspecified),inactive: -3.19%,–
Cc1ccc(OP(=O)(Nc2ccccn2)Oc2ccc(C)cc2)cc1,inactive: 3.31%,–
COC(=O)c1cc2c(s1)N=C(c1ccccc1)N(C)P2(=O)N1CCOCC1 (stereo unspecified),inactive: -3.56%,–
CCC(=O)N1C2C3N(C(=O)CC)C1C1N(C(=O)CC)C(C(N1C(=O)CC)N3C(=O)CC)N2C(=O)CC,inactive: 1.03%,–
O=C(OC1CN2CCC1CC2)c1ccccc1 (stereo unspecified),inactive: -0.133%,–
CN(C)C(=O)Oc1noc2ccccc12,inactive: 6.8%,–
CC(NC(=O)COC(=O)C(O)(c1ccccc1)c1ccccc1)c1ccccc1 (stereo unspecified),inactive: 4.69%,–
